The test has as its target human EP4 receptor (Homo sapiens (Human), UniProt P35408). The test is described as follows: Test for antagonism of the human EP4 receptor signal (cAMP HTRF). The format is cell-based. The following applies: cells expressing hEP4, PGE2 at EC80 (0.4 nM), cAMP TR-FRET. An excerpt: The binding of the agonist prostaglandin E2 (PGE2) to the EP4 subtype of human hPGE2-R (hEP4-R) induces the activation of membrane-bound adenylate cyclases and thus the formation of cAMP. In the presence of the phosphodiesterase inhibitor IBMX, this cAMP accumulates intracellularly and is employed in a competitive detection procedure after cell lysis. In this procedure, it competes with a fluorescence-labelled cAMP (cAMP-d2) for binding to an Eu cryptate-labelled anti-cAMP antibody. In the absence of cellular cAMP, a complex is formed between the Eu cryptate-labelled anti-cAMP antibody and the cAMP-d2 molecule, which after excitation at 337 nm makes possible an energy transfer based on FRET (fluorescence resonance energy transfer) to the cAMP-d2 tracer and leads to a long-lasting fluorescence signal (emission at 665 and 620 nm). This signal is time-resolved, i.e. measured in a suitable measuring apparatus after decay of the background fluorescence (time resolved; TR-FRET). The wave ratio determination (emission 665 nm/emission 620 nm*10000) moreover makes it possible to standardize individual measurement differences in the added amounts of the detection reagents.
By means of prostaglandin E2 administration and increase in the intracellular cAMP, a lowering of the FRET signal occurs, which in the case of an antagonistic substance action increases again. […]
On the technique in general: In TR-FRET formats the signal depends on donor and acceptor labels being close together.

By UniProt entry, the sequences of proteins in these tests, tags left out. Where a name states a change or a piece, a line headed by the entry shows the natural chain unless it says otherwise.
UniProt P35408: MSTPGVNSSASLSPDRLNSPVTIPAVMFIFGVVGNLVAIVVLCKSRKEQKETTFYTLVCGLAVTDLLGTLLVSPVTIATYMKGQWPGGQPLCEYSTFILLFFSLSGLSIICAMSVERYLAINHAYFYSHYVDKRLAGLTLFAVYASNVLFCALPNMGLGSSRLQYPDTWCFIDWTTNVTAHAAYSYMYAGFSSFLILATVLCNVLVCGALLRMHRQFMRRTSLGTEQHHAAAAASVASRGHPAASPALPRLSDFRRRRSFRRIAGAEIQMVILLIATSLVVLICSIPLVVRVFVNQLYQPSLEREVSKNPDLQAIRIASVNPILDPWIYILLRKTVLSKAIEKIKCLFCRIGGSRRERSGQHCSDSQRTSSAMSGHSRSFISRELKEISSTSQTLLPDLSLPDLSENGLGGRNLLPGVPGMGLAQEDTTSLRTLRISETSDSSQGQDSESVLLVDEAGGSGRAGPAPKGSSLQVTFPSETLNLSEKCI

A word on the IC50: it is the concentration that inhibits the measured activity by half. A lower IC50 goes with greater potency.

On to `CCn1c2ccc(-c3nc4cc(C(=O)O)ccc4n3CCOC)cc2c2ccc(F)cc21` [Example 10, 2-(9-Ethyl-7-fluoro-9H-carbazol-3-yl)-1-(2-methoxyethyl)-1H-benzimidazole-5-carboxylic acid], for which the IC50 stood at 10.3 nM.

`CCn1c2ccccc2c2cc(-c3nc4c(OC)c(C(=O)O)ccc4n3CC3CC3)ccc21` [Example 104, 1-(Cyclopropylmethyl)-2-(9-ethyl-9H-carbazol-3-yl)-4-methoxy-1H-benzimidazole-5-carboxylic acid]: the IC50 was 64.4 nM.

Source of the values: patent US9708311B2, “Benzimidazole derivatives as EP4 antagonists” (BAYER PHARMA AKTIENGESELLSCHAFT, priority 2012, dated 2017).
